The values below are quoted from earlier work in article PMC9849693.

The data set concerns the target RyR1 RyR1 peptide (Homo sapiens) (UniProt P21817). Nature of the data set: ITC. For orientation: ITC needs no label: the signal is the heat of the interaction.

In general, Kd refers to the concentration at which binding is half-saturated. For the substance Calmodulin (from UniProt P0DP23), the Kd was 46 nM.
